Data on one compound can be found in patent publication US4743585A (Warner-Lambert Company, priority 1986, dated 1988).

Chains of the proteins cited; added tags and fusions are not shown. Residues count along the entry.
UniProt P00797, 67-406, species assumed: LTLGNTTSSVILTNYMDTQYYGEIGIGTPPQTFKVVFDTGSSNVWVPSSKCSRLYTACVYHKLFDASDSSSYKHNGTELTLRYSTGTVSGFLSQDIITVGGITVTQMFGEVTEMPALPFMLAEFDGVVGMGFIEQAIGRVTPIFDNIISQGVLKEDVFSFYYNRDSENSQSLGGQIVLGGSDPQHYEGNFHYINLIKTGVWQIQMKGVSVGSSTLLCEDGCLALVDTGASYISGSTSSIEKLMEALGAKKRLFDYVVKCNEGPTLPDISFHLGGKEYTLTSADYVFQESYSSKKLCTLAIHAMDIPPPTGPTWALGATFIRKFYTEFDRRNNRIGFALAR

For orientation: IC50 means the concentration needed to halve the response being measured. Read a low IC50 as greater potency.

In the experiment the target is renin (Homo sapiens, UniProt P00797). As to the kind of experiment: in vitro renin inhibitory activity, standard radioimmunoassay for angiotensin I. In kind it is biochemical. To be noted: molar concentration causing 50% inhibition of renin activity; renin incubated two hours at 37° with substrate angiotensinogen; product angiotensin I by radioimmunoassay. The method, then:
The effectiveness of the aforementioned compounds is determined by a test for in vitro renin inhibitory activity. This activity is determined by a standard radioimmunoassay for angiotensin I. In this assay the enzyme, renin, incubated for two hours at 37° in the presence of a substrate, angiotensinogen, generates the product, angiotensin I. Test compounds are added to the incubation mixture.

In turn, `CC(C)CC(NC(=O)CC(O)C(Cc1ccccc1)NC(=O)C(Cc1c[nH]cn1)NCC(Cc1ccccc1)NC(=O)OC(C)(C)C)C(=O)NCc1ccccc1` (stereo not shown) [Example 74, 2,5,8,13,16-pentaazaheptadecanoic acid, 10-hydroxy-6-(1H-imidazol-4-ylmethyl)-14-(2-methylpropyl)-7,12,15-trioxo-17-phenyl-3,9-bis(phenylmethyl)-, 1,1-dimethylethyl ester] came in with a half-maximal inhibitory concentration (IC50) of 3.8 µM.
